We go through one compound from patent US6989435B2, “Compounds and methods to inhibit or augment an inflammatory response” (Cambridge University Technical Services Ltd., priority 1997, dated 2006).

SMILES strings stand for the structures.

The target in this assay is T1, Duffy Antigen Receptor for Chemokines (DARC) (Homo sapiens, UniProt Q16570).
T1 sequence (Q16570 1-336): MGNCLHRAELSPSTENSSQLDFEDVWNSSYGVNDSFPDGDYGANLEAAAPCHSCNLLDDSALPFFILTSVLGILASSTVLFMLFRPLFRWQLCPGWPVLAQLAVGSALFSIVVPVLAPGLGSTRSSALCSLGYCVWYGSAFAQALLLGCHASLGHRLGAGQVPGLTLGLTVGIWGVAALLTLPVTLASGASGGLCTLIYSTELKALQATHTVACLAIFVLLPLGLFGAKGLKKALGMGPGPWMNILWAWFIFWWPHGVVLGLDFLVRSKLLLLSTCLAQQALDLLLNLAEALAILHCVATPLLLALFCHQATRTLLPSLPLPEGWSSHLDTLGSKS
The assay is described as follows: DARC binding: competition with 125I-labeled MCP-1 on red blood cells. The following applies: Table 7; estimated ka for binding to red blood cells divided by average inhibitory ED50 versus each of the chemokines.

With `NCCCC[C@H](NC(=O)[C@H](CCC(N)=O)NC(=O)[C@@H](N)CCCCN)C(=O)O` [KQK], the “DUFFY SELECTIVITY” value is listed as 22.34.
